Reference: US20090105124A1, “HETEROCYCLIC MODULATORS OF TGR5” (Kalypsys, Inc., priority 2007, published 2009)

Chains of the proteins cited; added tags and fusions are not shown.
UniProt Q8TDU6, whole entry: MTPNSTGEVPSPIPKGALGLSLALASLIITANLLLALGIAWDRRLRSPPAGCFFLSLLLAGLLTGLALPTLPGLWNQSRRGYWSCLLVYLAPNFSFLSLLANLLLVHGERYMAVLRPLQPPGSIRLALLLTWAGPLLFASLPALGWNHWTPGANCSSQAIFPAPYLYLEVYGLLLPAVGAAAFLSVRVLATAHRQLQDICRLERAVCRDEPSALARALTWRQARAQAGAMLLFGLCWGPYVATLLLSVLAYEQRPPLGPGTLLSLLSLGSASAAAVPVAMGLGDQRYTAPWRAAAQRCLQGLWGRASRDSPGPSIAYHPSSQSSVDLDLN

Molecular target: human TGR5 (Homo sapiens, UniProt Q8TDU6)
Assay: cAMP production assay in HEK293 cells stably expressing TGR5 (LANCE cAMP, TR-FRET)
Conditions: read-out: cAMP Production in 293-TGR5 Cells, stimulated with test compounds for 30 minutes, 1 mM IBMX, tested form: HCl
Protocol: HEK293 cells stably expressing TGR5 (HEK293-TGR5) were established by stably transfecting HEK-293 cells with an expression vector (pcDNA 3.1, Invetrogen) inserted with human TGR5 cDNA using Fugene6 (Roche, Indianapolis, Ind.) according to conventional methods. Cells were grown in DMEM (invitrogen, Carlsbad, Calif.) supplemented with 10% FBS, 1% penicillin/streptomycin under geneticin selection. The presence of TGR5 transcripts in these cells was confirmed using branched DNA (bDNA, Genospectra, Inc., Fremont Calif.) following the manufacturer's protocol and using specific probes for human TGR5. cAMP production assay was performed in high throughput 1536 well format using LANCE cAMP detection kit (Perkin Elmer Inc., Boston, Mass.) according to the manufacturer's protocol. Briefly, HEK293-TGR5 cells were harvested using non-enzymatic cell dissociation buffer (Invitrogen, Carlsbad, Calif.) and suspended in DMEM supplemented with 0.1% FBS at a density of 800,000 cells/ml. Alexa antibody was added to the cell suspension, and 4 ul of the mixture was dispensed in white opaque tissue culture treated Greiner 1536 well plates (USA Scientific, Inc., Ocala, Fla.). […] TR-FRET signal was detected using the Viewlux (Perkin Elmer Inc., Boston Mass.). EC50 values were determined using Graph Pad Prizm analysis (GraphPad Software, Inc). […]

EC50: < 10 µM
SMILES: COc1cncc(-c2nc3cccnc3c(=O)n2NCc2ccc(Cl)cc2)c1
